Measurements as given in patent US20160369010A1 (AstraZeneca / MedImmune, published 2016).

The chains behind the UniProt entries cited, without tags or fusion partners. Residues count along the entry.
UniProt P43220, 24-463: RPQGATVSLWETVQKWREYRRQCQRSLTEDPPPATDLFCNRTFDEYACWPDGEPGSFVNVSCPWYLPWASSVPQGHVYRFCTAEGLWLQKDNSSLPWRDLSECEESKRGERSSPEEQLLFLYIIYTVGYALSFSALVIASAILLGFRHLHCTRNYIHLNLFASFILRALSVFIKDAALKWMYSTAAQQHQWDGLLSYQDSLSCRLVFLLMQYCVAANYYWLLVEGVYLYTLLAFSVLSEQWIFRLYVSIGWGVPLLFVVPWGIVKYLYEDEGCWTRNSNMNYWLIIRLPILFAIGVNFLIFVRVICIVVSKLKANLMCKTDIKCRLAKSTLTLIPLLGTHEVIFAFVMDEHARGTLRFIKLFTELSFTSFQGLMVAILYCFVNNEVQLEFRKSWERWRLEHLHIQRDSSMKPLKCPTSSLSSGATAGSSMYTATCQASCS

Columns and labels:
human GLP-1 receptor = human GLP-1 receptor (human, UniProt P43220 24-463); test: cell-based or functional assay
[1] = target: T1, cynomolgus Avi_PCSK9_Flag_His (cynomolgus, UniProt A0A2K5TZC4 150-811); test: SPR (Biacore), IgG captured
T1 construct: In-house protein; also called cynomolgus PCSK9; CyPCSK9

Row | Binder | EC50, cAMP assay (human GLP-1 receptor) | Kd [1]
1 | PC9_2_Exe4_DSB#9 (antibody) chain 1: QVQLVQSGAEVKKPGASVKVSCKASGYTFTSYYMHWVRQAPGQGLEWMGEIHPSGGRTNYNEKFKSRVTMTRDTSTSTVYMELSSLRSEDTAVYYCARERPLYASDLWGQGTTVTVSS chain 2: HGEGTFTSDLSKQMEEEAVRCFIEWLKNGGPSSGAPPCGGDIQMTQSPSSLSASVGDRVTITCKASQDVHTAVAWYQQKPGKAPKLLIYHASYRYTGVPSRFSGSGSGTDFTFTISSLQPEDIATYYCQQRYSLWRTFGQGTKLEIK | 0.124 nM | 
2 | HS9_DSB7 (antibody, also called PC9_HS9_DSB#7) VH: QVQLVQSGAEVKKPGASVKVSCKASGYTFTSYYMHWVRQAPGQGLEWMGEISPSGGSTSYNQKFQGRVTMTRDTSTSTVYMELSSLRSEDTAVYYCARERPLYASDLWGQGTTVTVSS VL: HGEGTFTSDLSKQMEEECVRLFIEWLKNGGPSSGAPPPGCGGGGGSGGGGSGGGGSADIQMTQSPSSLSASVGDRVTITCQASQDVKTAVAWYQQKPGKAPKLLIYSASYRYTGVPSRFSGSGSGTDFTFTISSLQPEDIATYYCQQRYSLWRTFGQGTKLEIK |  | 2.99 nM
